Test results from patent publication US8697372B2, “Method for determining the binding of a given compound to a membrane receptor” (CIS Bio International, priority 2009, dated 2014).

The chains behind the UniProt entries cited, without tags or fusion partners.
UniProt P41143, whole entry: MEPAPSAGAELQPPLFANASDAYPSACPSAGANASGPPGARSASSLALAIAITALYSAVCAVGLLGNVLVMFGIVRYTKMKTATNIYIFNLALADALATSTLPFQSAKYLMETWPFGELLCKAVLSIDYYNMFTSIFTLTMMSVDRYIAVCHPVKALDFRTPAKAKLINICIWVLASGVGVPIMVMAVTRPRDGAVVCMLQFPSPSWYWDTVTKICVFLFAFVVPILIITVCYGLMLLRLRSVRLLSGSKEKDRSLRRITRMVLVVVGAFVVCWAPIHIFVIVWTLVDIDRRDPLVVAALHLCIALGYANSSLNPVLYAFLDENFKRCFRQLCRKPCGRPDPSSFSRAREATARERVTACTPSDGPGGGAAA

Molecular target: T1, Delta Opioid receptor implicated in the heterodimer with Dopamine D2 (Homo sapiens, UniProt P41143)
T1 construct: membrane-addressing signal peptide T8 (printed '18') (N); expressed in transfected cells; host or cells: HEK293T/17 cells, transient co-transfection
Type: binding
Conditions: 3 nM red antagonist of the opioid receptor, D2 receptor labeled with HALO-Lumi4Tb, HEK293T cells, FIG. 10

Endomorphin I [Endomorphin 1]
Competition with the fluorescent reference ligand and binding to the heterodimers: compete with the fluorescent reference ligand and bind to the heterodimers
